In the test the test system is human colon cancer cell line HT-29 xenograft tumors. The conditions noted are these: mouse, in vivo.

SMILES strings stand for the structures. Values joined by “and” are separate entries in the source; they are usually repeats but may differ in a detail not shown here. Equal values may be shown once.

Consider `CC[C@@]1(O)C(=O)OCc2c1cc1n(c2=O)Cc2c-1nc1cc3c(cc1c2CN1CCN(C)CC1)OCCO3` [free MPE-camptothecin, 7-(4-methyl-piperazino-methylene)-10,11-ethylenedioxy-20(S)-camptothecin], for which the “Partial Remission (tumor volume less than 50% of peak tumor volume)” value was 1 and 1/10.

(Values after US7279179B2, “Liposome-entrapped topoisomerase inhibitors” (ALZA Corporation, priority 1988, dated 2007).)
